The record followed here is patent publication US20210284742A1, “METHODS OF TREATING OR PREVENTING MUCORMYCOSIS” (University of Maryland, Baltimore, priority 2018, published 2021).

Entries after “also recorded” stand apart in the source; their conditions may differ.

For one test, the system named is R. delemar. As to the kind of experiment: Growth / germination of R. delemar in the absence of host cells. It is filed as cell-based.
In test [1] the test system is A549 cells infected with R. delemar. The test is described as follows: R. delemar-induced A549 cell damage (Pierce LDH assay). It is filed as cell-based, human. The settings on record: for damage following antibody pre-treatment: A549 cells, R. delemar, antibodies to extracellular domain of EGFR or ErbB2. How it is done: Measurement of R. delemar-induced host cell damage. R. delemar-induced A549 cell damage was quantified using the Pierce LDH Assay with slight modifications to the manufacturer's protocol. Briefly, A549 cells were grown in 96-well tissue culture plates for 18-24 hours. […] For controls, host cells will be incubated with DMSO (the solvent used to reconstitute the inhibitor) or 25 μg/ml of mouse IgG antibody in parallel. After 24 hours of incubation at 37° C., 50 μl of the cell culture supernatant was collected from uninfected, infected, and fungi-only control wells and transferred to a 96 well plate to assay for LDH activity. Lysis buffer was added to all infected wells and incubated for 45 min at 37° C. After lysis, 50 μl of cell culture supernatant was transferred to a 96 well plate and used for the LDH Assay Kit per protocol. LDH release was calculated as follows: % Cytotoxicity=[Experimental release−Fungal Cells Spontaneous Control−Host Cells Spontaneous Control]/[Host Cell Maximum Control−Fungal Cells Maximum Control−Host Cells Spontaneous Control]×100. LDH is a cytosolic enzyme but will be released into the cell culture medium upon cell membrane damage. The amount of extracellular LDH is proportional to the amount of cell damage.
R. delemar-induced A549 cell damage was quantified using the Pierce LDH assay, with slight modifications to the manufacturer's protocol. Briefly, A549 cells were grown in 96-well tissue culture plates for 18 to 24 h. Cells were then pretreated for 1 h with inhibitor and infected with 1×10^6-2×10^6 germlings suspended in 150 μl F-12K plus 10% FBS. For controls, host cells were incubated with the appropriate amount of diluent used to reconstitute the in parallel. After 24 h of incubation at 37° C., 50 μl of the cell culture supernatant was collected from uninfected, infected, and fungus-only control wells and transferred to a 96-well plate to assay for LDH activity. Lysis buffer was added to all infected wells, and the mixture was incubated for 45 min at 37° C. After lysis, 50 μl of cell culture supernatant was transferred to a 96-well plate and used for the LDH assay kit per the protocol. LDH release was calculated as follows: % cytotoxicity=[(experimental release−fungal cell spontaneous control−host cell spontaneous control)/(host cell maximum control−fungal cell maximum control−host cell spontaneous control)]×100. LDH is a cytosolic enzyme but will be released into the cell culture medium upon cell membrane damage. The amount of extracellular LDH is proportional to the amount of cell damage.

The test system of test [2] is A549 alveolar epithelial cells infected with R. delemar spores. The test is described as follows: Measurement of host cell endocytosis of R. delemar by A549 cells (Uvitex differential fluorescence). The settings on record: for endocytosis following antibody pre-treatment: A549 cells, R. delemar, antibodies to extracellular domain of EGFR or ErbB2. It is filed as cell-based, human. How it is done:
Measurement of host cell endocytosis. 12-mm glass coverslips were seeded with A549 alveolar epithelial cells. Cells were then pre-treated for 1 h with Gefitinib (25 μM) or Cetuximab (25 μg/ml). For controls, host cells will be incubated with DMSO (the solvent used to reconstitute the inhibitor) or 25 μg/ml mouse IgG antibody in parallel. Host cells were then infected with 2×10^5 R. delemar spores. After incubation for 3 h, cells were fixed in 3% paraformaldehyde and stained for 1 h with 1% Uvitex, which specifically binds to chitin in the fungal cell wall. After washing with PBS, coverslips were mounted on a glass slide with a drop of ProLong Gold anti-fade reagent (Molecular Probes) and sealed. The total number of cell-associated organisms (i.e. fungi adhering to the monolayer) per high-powered field were determined by phase-contrast microscopy. The same field will be examined by epifluorescence microscopy, and the number of brightly fluorescent, uninternalized fungi were determined. The number of endocytosed organisms was calculated by subtracting the number of fluorescent fungi from the total number of visible fungi. At least 400 organisms were counted per treatment group in at least 15 different fields per coverslip. Experiments were performed in duplicate or triplicate on at least two separate days.
12-mm glass coverslips in 12 well dishes will be seeded with A549 alveolar epithelial cells. Cells were then pre-treated 1 h with inhibitors. For controls, host cells were incubated with the appropriate amount of diluent used to reconstitute the inhibitor in parallel. Host cells were then infected with 2×10^6 Rdelemar. After incubation for 3 h, cells were fixed in 3% paraformaldehyde and stained for 1 h with 1% Uvitex, which specifically binds to chitin in the fungal cell wall. After washing with PBS, coverslips were mounted on a glass slide with a drop of ProLong Gold anti-fade reagent (Molecular Probes) and sealed. The total number of cell-associated organisms (i.e., fungi adhering to the monolayer) per high-powered field was determined by phase-contrast microscopy. The same exact field was examined by epifluorescence microscopy, and the number of brightly fluorescent, uninternalized fungi will be determined. The number of endocytosed organisms is calculated by subtracting the number of fluorescent organisms from the total number of visible organisms. At least 400 organisms were counted in at least 15 different fields per coverslip. Experiments were performed in duplicate on separate days. Data will be expressed as median f interquartile range.

In another test the test system is Rhizopus. As to the kind of experiment: Rhizopus infection in vitro (FIG. 24). In kind it is cell-based.
The mark [3] stands for this setting: spore preparations pre-treated with drug prior to the infection.

As for Cetuximab, in the test with R. delemar, the “R. delemar mycelial growth” value is “no effect”. The “R. delemar-induced damage of A549 cells (LDH assay)” value in test [1] (A549 cells pretreated 1 h with 25 μM Gefitinib or 25 μg/ml Cetuximab, 24 h infection, vs vehicle or IgG1 control antibody) is reported as “significantly reduced”. Further, in test [1], the “damage following antibody pre-treatment” value is recorded as “significant reduction”. For the same substance, the “host cell damage after pre-treatment of R. delemar spore preparations” value in test [1] (setting [3]) was “did not reduce”. Besides, the “endocytosis of R. delemar spores” value in test [2] (A549 cells pretreated 1 h with 25 μM Gefitinib or 25 μg/ml Cetuximab, 3 h infection, vs vehicle or IgG1 control antibody) is given as “significantly reduced; also recorded: did not completely block”. In addition, in test [2], the “endocytosis following antibody pre-treatment” value is “significant reduction”. In addition, the “endocytosis after pre-treatment of R. delemar spore preparations” value in test [2] (setting [3]) is listed as “did not reduce”.
With Trastuzumab, the “Rhizopus infection in vitro” value in the test on Rhizopus is “inhibits”. For the same substance, in test [1], the “damage following antibody pre-treatment” value is recorded as “significant reduction”. Besides, the “endocytosis following antibody pre-treatment” value in test [2] is on record as “significant reduction”.
